## Apparent affinities of Ab-95 variants for a coronavirus HR2 peptide

Binding partner: SARS-CoV-2 spike HR2 peptide, sequence PDVDLGDISGINAS.

Ab-95 is the parent antibody, in scFv form: VH, then a (GGGGS)3 linker, then VL. The heavy chain is unchanged in all variants.
VH: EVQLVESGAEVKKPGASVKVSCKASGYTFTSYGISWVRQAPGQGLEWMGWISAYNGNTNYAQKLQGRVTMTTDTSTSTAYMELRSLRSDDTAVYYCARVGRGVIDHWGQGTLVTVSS
VL: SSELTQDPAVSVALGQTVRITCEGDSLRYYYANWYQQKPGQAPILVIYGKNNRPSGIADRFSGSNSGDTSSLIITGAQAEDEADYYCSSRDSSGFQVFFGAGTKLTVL

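The parent was found by panning a naive human phage display library on the peptide. In library AAYL52, one, two or three CDR residues were substituted; doubles and triples were drawn at random. In AlphaSeq, yeast of one mating type display the scFv and yeast of the other type display the target. After mating in shaken culture at 30 °C for 16 h, diploids were selected and their barcode pairs sequenced. Each replicate has its own calibration line, from reference interactions of the BCL2 family. Each pool was mated in three replicate cultures.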

Variants are written as CDR1, CDR2 and CDR3 of the light chain (limits as in the source). Parent: EGDSLRYYYAN, GKNNRPS, SSRDSSGFQVF. Affinities are written as log10 Kd with Kd in nM; a lower number is a better binder. A mean of the replicates is given; it leaves out those without a signal. "nd" marks a missing value. The strain was present, yet no cells mated with the target were sequenced in any replicate, which points to weak or no binding. Parent in this assay: reference entry 2.31, copy in this library 2.25. Nonspecific signal, from three strains lacking the peptide, appeared in 28% of pairings of library AAYL52, centred on 3.91 (5% of these signals below 2.90); values are not corrected for it.

CDR-L1,CDR-L2,CDR-L3,mean log10 Kd (nM),detected
EQDSLRYYYAD,GKNNRPS,SSRDSSGFGVF,5.54,1 of 3
EGDSLRYYYAN,GKTNRNS,SSLDSSGFQVF,nd,0 of 3
EGDSCRYYYIN,GKNNRPS,SSRDSSGFQVR,4.36,2 of 3
EQDSLRYYYFN,GYNNRPS,SSRDSSGFQVF,3.12,1 of 3
EGDSLRHYYAN,GKNNRPS,SSRDPSGFQLF,3.69,3 of 3
EGDLLCYYYAN,GKMNRPS,SSRDSSGFQVF,3.44,1 of 3
EGDSLRYYSAN,GKNNRPS,SSRDSSGFTVD,2.32,1 of 3
EGQSLRYYYAN,GKANRPS,SSRDSNGFQVF,2.94,3 of 3
RGDSLRYYYAN,GDNNRPS,SSRDSCGFQVF,2.11,3 of 3
EPDSLRHYYAN,GKDNRPS,SSRDSSGFQVF,3.78,3 of 3
EGDSLRYYYAN,GKNDRPS,SSGDSSGFVVF,3.55,2 of 3
EGDSLRHYRAN,GKNNRPS,SSRDQSGFQVF,2.37,3 of 3
EGESLRYYYAN,GKNNGPS,SSRDSSGFVVF,3.86,1 of 3
EGDSLMYYYAN,GMNNRPS,SSIDSSGFQVF,4.23,3 of 3
EGDSLEYYYAW,GKNNRPS,SSRDSSGFQVF,3.43,2 of 3
IGDSLRYNYAN,GKNNRPS,SWRDSSGFQVF,3.34,3 of 3
HGDSLRYYIAN,GKNNRPD,SSRDSSGFQVF,2.21,3 of 3
EGDSLRYYYAD,GWNNRPS,SSRDSMGFQVF,3.11,1 of 3
EGDSFRYYYAN,GKNNRPG,SSRDSVGFQVF,4.26,2 of 3
EGDSLRKYYAN,GKNNRPS,SSLDSSNFQVF,3.58,2 of 3
EGDSERYYYAK,GKNNRPS,WSRDSSGFQVF,4.42,1 of 3
EGDSLDYYYAN,GMNNRQS,SSRDSSGFQVF,3.56,1 of 3
EGLSLRYYYAN,GKNNRPS,SSRDSAGFEVF,nd,0 of 3
EGDSLRYYYAN,GKNNLPS,SSRDSSGFQVI,2.63,3 of 3
EEDALRYYYAN,GKNNRPS,SSRDSSGFQQF,3.51,2 of 3
AGDSTRYYYAN,GKNNMPS,SSRDSSGFQVF,3.31,3 of 3
EGYSLRYYYAN,GKNNRDS,SSRDSSGFQEF,3.39,2 of 3
EGDFLRYYYAN,GKNPRPS,SSRDSSGFLVF,nd,0 of 3
EGDSLRYYGAN,GKNNRPS,SSRDSSGKQYF,2.48,3 of 3
EGDSLRHYYAN,GKNNRCS,SSRDSIGFQVF,nd,0 of 3
ELDSLTYYYAN,GKNNRPS,SSRDSSGFLVF,3.95,1 of 3
EGDSLRYYYAN,CKNNRPS,SFRDSSGFAVF,nd,0 of 3

Continued, with the values leading:

mean log10 Kd (nM),detected,CDR-L1,CDR-L2,CDR-L3
2.15,3 of 3,EGDSLRYYDMN,GKNNRPS,SWRDSSGFQVF
2.00,3 of 3,EGDSLRYYYAN,GKNNRPT,SSRDSSRNQVF
2.45,1 of 3,ENDSLRFYYAN,GKNNRSS,SSRDSSGFQVF
4.43,3 of 3,EGDSGRYYKAN,GKLNRPS,SSRDSSGFQVF
3.02,3 of 3,EGDSLRYYYAN,GKQTRPS,SSRSSSGFQVF
3.69,1 of 3,EGDSLRYYYAN,GKNTRPP,SSRDSSGFQWF
4.98,1 of 3,GGDSLWYYYAW,GKNNRPS,SSRDSSGFQVF
nd,0 of 3,EGDSLRYYYAN,GFNNRPS,SSRDSSGEQWF
2.39,3 of 3,EGDSLRYYYAN,GKNFRPS,SSRDQSGFVVF
4.34,2 of 3,YGDSLGYYYAN,GKNNRPS,SSNDSSGFQVF
3.46,1 of 3,EGDSLRYYYAD,GKNNRPS,SSRCSHGFQVF
2.11,3 of 3,EGTSLRKHYAN,GKNNRPS,SSRDSSGFQVF
3.70,2 of 3,EGDSLRYYYAN,GKNNRPI,SSRDSSGRQFF
nd,0 of 3,EGDSLRYYYAW,IKNNWPS,SSRDSSGFQVF
3.97,3 of 3,EGDSLGYMYAL,GKNNRPS,SSRDSSGFQVF
5.21,2 of 3,EGDSLDYYYAN,GKNRRPS,HSRDSSGFQVF
3.22,3 of 3,EGDSLRYYYAN,GSNNRPS,STRDSSGFQKF
3.46,1 of 3,EGDSLRYYYAN,GKINRPS,SSLQSSGFQVF
3.96,3 of 3,EGDSLRYYYAN,GKCNRSS,SSRDSSGCQVF
4.16,1 of 3,EGDILRYYYAN,GKNNRPS,SSSDSSGFQIF
nd,0 of 3,EGDSLRYYYAN,GKNNRPS,SSRRYSGFQVT
nd,0 of 3,EGDSLWYMYAN,KKNNRPS,SSRDSSGFQVF
5.54,1 of 3,EGDACRYYYAN,GINNRPS,SSRDSSGFQVF
4.30,1 of 3,EGDFKRYYYAN,GKNNRPH,SSRDSSGFQVF
nd,0 of 3,EADSLRYYYAN,GKINRPS,SARDSSGFQVF
nd,0 of 3,EMDILRYYYAN,GKNNRPS,SSRDSTGFQVF
4.82,2 of 3,EKDSLRYYYAN,AKNNRMS,SSRDSSGFQVF
4.28,1 of 3,EGDSLRYYYAS,GKNNRPS,ESRDSVGFQVF
3.76,1 of 3,EGWSLRYYYAN,GKNGRPS,SERDSSGFQVF
4.00,3 of 3,FGYSLRYYYAN,GKNNRPS,SSRDSSGFQVT
3.50,1 of 3,EGDSLRYYYAN,GKNNCPQ,ASRDSSGFQVF
nd,0 of 3,EGDSLRYYYTN,GKNNCPS,WSRDSSGFQVF

Excerpt, the first 10 entries:

CDR-L1,CDR-L2,CDR-L3,mean log10 Kd (nM),detected
EQDSLRYYYAD,GKNNRPS,SSRDSSGFGVF,5.54,1 of 3
EGDSLRYYYAN,GKTNRNS,SSLDSSGFQVF,nd,0 of 3
EGDSCRYYYIN,GKNNRPS,SSRDSSGFQVR,4.36,2 of 3
EQDSLRYYYFN,GYNNRPS,SSRDSSGFQVF,3.12,1 of 3
EGDSLRHYYAN,GKNNRPS,SSRDPSGFQLF,3.69,3 of 3
EGDLLCYYYAN,GKMNRPS,SSRDSSGFQVF,3.44,1 of 3
EGDSLRYYSAN,GKNNRPS,SSRDSSGFTVD,2.32,1 of 3
EGQSLRYYYAN,GKANRPS,SSRDSNGFQVF,2.94,3 of 3
RGDSLRYYYAN,GDNNRPS,SSRDSCGFQVF,2.11,3 of 3
EPDSLRHYYAN,GKDNRPS,SSRDSSGFQVF,3.78,3 of 3

From the AlphaSeq antibody data of Engelhart et al. 2022 (doi:10.1038/s41597-022-01779-4), copy in the FLAb collection.